Assays:
[1] = target: human muscarinic M3 receptor (Homo sapiens, UniProt P20309); experiment: Alphascreen Surefire phospho-ERK1/2 functional assay, M3; assay type: cell-based; details: CHO cells stably expressing human M3; for pEC50 M3: agonist 5 min, 37° C.; for % Emax cf. ACh (M3): relative to ACh
[2] = target: human muscarinic M1 receptor (Homo sapiens, UniProt P11229); experiment: Alphascreen Surefire phospho-ERK1/2 functional assay, M1; details: CHO cells stably expressing human M1; for pEC50 M1: agonist 5 min, 37° C.; for % Emax cf. ACh (M1): relative to ACh
[3] = target: human muscarinic M2 receptor (Homo sapiens, UniProt P08172); experiment: Alphascreen Surefire phospho-ERK1/2 functional assay, M2; assay type: cell-based; details: CHO cells stably expressing human M2; relative to ACh
[4] = target: human muscarinic M4 receptor (Homo sapiens, UniProt P08173); experiment: Alphascreen Surefire phospho-ERK1/2 functional assay, M4; assay type: cell-based; details: CHO cells stably expressing human M4; for pEC50 M4: agonist 5 min, 37° C.; for % Emax cf. ACh (M4): relative to ACh

By UniProt entry, the sequences of proteins in these tests, tags left out.
UniProt P20309, whole entry: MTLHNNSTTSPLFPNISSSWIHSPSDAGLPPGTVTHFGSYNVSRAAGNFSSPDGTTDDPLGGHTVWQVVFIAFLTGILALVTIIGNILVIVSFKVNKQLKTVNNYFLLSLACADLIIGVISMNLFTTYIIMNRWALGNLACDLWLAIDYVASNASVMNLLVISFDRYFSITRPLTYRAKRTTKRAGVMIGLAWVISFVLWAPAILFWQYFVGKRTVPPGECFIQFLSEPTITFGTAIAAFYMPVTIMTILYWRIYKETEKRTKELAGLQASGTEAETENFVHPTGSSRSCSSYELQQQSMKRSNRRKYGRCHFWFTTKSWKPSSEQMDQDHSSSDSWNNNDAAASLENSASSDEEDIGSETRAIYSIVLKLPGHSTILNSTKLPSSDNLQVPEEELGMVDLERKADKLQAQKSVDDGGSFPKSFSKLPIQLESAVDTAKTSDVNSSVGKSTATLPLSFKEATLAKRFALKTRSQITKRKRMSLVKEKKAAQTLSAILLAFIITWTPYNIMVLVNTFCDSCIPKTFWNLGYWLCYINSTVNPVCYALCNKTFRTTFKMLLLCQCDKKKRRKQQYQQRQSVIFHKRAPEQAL
UniProt P11229, whole entry: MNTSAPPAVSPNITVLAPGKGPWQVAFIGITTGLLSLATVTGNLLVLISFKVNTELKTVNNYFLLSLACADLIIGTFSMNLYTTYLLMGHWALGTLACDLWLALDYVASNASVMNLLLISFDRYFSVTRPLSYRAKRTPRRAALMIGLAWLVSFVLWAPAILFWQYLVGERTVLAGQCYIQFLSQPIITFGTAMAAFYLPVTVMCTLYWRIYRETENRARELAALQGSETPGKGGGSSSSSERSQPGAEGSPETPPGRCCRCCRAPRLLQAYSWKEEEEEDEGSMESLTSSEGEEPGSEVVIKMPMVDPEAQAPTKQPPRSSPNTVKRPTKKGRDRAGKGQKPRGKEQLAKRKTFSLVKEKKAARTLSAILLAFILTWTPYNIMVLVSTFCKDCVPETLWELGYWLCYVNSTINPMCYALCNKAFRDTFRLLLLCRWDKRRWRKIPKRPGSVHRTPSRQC
UniProt P08172, whole entry: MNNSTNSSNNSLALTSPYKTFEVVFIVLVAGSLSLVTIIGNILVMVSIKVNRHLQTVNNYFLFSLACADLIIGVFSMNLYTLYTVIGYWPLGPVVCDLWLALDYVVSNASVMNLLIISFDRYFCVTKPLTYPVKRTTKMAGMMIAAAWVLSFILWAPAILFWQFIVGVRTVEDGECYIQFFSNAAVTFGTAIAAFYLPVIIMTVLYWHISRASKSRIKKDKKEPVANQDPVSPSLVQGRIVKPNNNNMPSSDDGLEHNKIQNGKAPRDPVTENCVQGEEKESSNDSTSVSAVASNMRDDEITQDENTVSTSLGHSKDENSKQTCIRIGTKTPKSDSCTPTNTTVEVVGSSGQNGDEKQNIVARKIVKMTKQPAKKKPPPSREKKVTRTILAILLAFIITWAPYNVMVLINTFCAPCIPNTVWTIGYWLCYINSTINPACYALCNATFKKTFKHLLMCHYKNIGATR
UniProt P08173, whole entry: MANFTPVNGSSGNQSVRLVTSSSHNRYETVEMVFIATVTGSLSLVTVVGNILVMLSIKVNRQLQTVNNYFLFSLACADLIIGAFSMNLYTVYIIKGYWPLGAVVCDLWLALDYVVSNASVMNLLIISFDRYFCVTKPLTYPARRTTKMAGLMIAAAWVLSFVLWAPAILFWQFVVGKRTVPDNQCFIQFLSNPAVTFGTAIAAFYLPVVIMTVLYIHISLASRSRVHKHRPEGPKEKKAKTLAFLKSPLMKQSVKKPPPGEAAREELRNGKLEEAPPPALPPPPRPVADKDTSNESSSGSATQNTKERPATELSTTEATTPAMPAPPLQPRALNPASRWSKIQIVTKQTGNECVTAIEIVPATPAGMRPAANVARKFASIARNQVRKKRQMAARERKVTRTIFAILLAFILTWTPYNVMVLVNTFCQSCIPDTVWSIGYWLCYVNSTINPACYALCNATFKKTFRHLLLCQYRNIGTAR

CCOC(=O)N1CCC2(CC(N3C[C@@H]4[C@H](C3)[C@H]4C(=O)NCC(C)C)C2)C1 (single isomer, unassigned) [2-2 Isomer 2]
pEC50 M3 [1]: 4.70 | % Emax cf. ACh (M3) [1]: 2% | pEC50 M1 [2]: 7.10 | % Emax cf. ACh (M1) [2]: 101% | % Emax cf. ACh (M2) [3]: 8% | pEC50 M4 [4]: 6.56 | % Emax cf. ACh (M4) [4]: 63%

CCOC(=O)N1CCC2(CC(N3C[C@@H]4[C@H](C3)[C@H]4C(=O)N3CCCCCC3)C2)C1 (single isomer, unassigned) [2-16 Isomer 2]
pEC50 M3 [1]: 4.70 | % Emax cf. ACh (M3) [1]: 59% | pEC50 M1 [2]: 7.79 | % Emax cf. ACh (M1) [2]: 94% | % Emax cf. ACh (M2) [3]: 87% | pEC50 M4 [4]: 7.42 | % Emax cf. ACh (M4) [4]: 75%

CCOC(=O)N1CCC2(CC(N3C[C@@H]4[C@H](C3)[C@H]4C(=O)N3CCCCC3)C2)C1 (single isomer, unassigned) [2-13 Isomer 1]
pEC50 M1 [2]: 6.72 | % Emax cf. ACh (M1) [2]: 31% | pEC50 M4 [4]: 4.70 | % Emax cf. ACh (M4) [4]: 71%

CCOC(=O)N1CCC2(CC(N3C[C@@H]4[C@H](C3)[C@H]4C(=O)N(CC)CC)C2)C1 (single isomer, unassigned)
pEC50 M1 [2]: 5.90 | % Emax cf. ACh (M1) [2]: 42% | pEC50 M4 [4]: 4.70 | % Emax cf. ACh (M4) [4]: 39%

CCOC(=O)N1CCC2(CC(N3C[C@@H]4[C@H](C3)[C@H]4C(=O)N3CCC34COC4)C2)C1 (single isomer, unassigned)
pEC50 M1 [2]: 5.76 | % Emax cf. ACh (M1) [2]: 95% | pEC50 M4 [4]: 5.67 | % Emax cf. ACh (M4) [4]: 71%

CCOC(=O)N1CC2CC(N3C[C@@H]4[C@H](C3)[C@H]4C(=O)N(CC)CC)CC2C1 (single isomer, unassigned) [12-1 Isomer 1]
pEC50 M1 [2]: 6.21 | % Emax cf. ACh (M1) [2]: 49% | pEC50 M4 [4]: 4.70 | % Emax cf. ACh (M4) [4]: 6%

CCN(CC)C(=O)[C@H]1[C@@H]2CN(C3CC4COCC(C3)N4C(=O)OC)C[C@@H]21 (single isomer, unassigned)
pEC50 M1 [2]: 6.67 | % Emax cf. ACh (M1) [2]: 96% | pEC50 M4 [4]: 6.24 | % Emax cf. ACh (M4) [4]: 73%

CCOC(=O)N1CCC2(CC(N3C[C@@H]4[C@H](C3)[C@H]4C(=O)N3CCCC3)C2)C1 (single isomer, unassigned) [2-12 Isomer 1]
pEC50 M1 [2]: 4.88 | % Emax cf. ACh (M1) [2]: 65% | pEC50 M4 [4]: 6.14 | % Emax cf. ACh (M4) [4]: 85%

CCOC(=O)[C@H]1[C@@H]2CN(C3C4CC3CN(C(=O)OCC)C4)C[C@@H]21 (single isomer, unassigned) [5-1 Isomer 2]
pEC50 M1 [2]: 4.70 | % Emax cf. ACh (M1) [2]: 102% | pEC50 M4 [4]: 6.09 | % Emax cf. ACh (M4) [4]: 54%

CCOC(=O)N1CC2CC(N3C[C@@H]4[C@H](C3)[C@H]4C(=O)N(CC)CC)CC2C1 (single isomer, unassigned) [12-1 Isomer 2]
pEC50 M1 [2]: 5.94 | % Emax cf. ACh (M1) [2]: 49% | pEC50 M4 [4]: 4.70 | % Emax cf. ACh (M4) [4]: 8%

CCOC(=O)N1C[C@@H]2CC[C@H]1CC2N1C[C@@H]2[C@H](C1)[C@H]2C(=O)N(C)CC (single isomer, unassigned)
pEC50 M1 [2]: 6.20 | % Emax cf. ACh (M1) [2]: 134% | pEC50 M4 [4]: 5.20 | % Emax cf. ACh (M4) [4]: 52%

CCOC(=O)N1CCC2(CC(N3C[C@@H]4[C@H](C3)[C@H]4C(=O)N3CCCC3)C2)C1 (single isomer, unassigned) [2-12 Isomer 2]
pEC50 M1 [2]: 6.67 | % Emax cf. ACh (M1) [2]: 79% | pEC50 M4 [4]: 6.37 | % Emax cf. ACh (M4) [4]: 72%

CCOC(=O)N1CCC2(CC(N3C[C@@H]4[C@H](C3)[C@H]4C(=O)N3CC4(CCC4)C3)C2)C1 (some centres unmarked)
pEC50 M1 [2]: 4.70 | % Emax cf. ACh (M1) [2]: 11% | pEC50 M4 [4]: 6.04 | % Emax cf. ACh (M4) [4]: 34%

CCOC(=O)N1CC2CCC(C1)C2N1C[C@@H]2[C@H](C1)[C@H]2C(=O)N(CC)CC (single isomer, unassigned)
pEC50 M1 [2]: 6.46 | % Emax cf. ACh (M1) [2]: 76% | pEC50 M4 [4]: 4.70 | % Emax cf. ACh (M4) [4]: 2%

CCOC(=O)N1CC2CC(N3C[C@@H]4[C@H](C3)[C@H]4C(=O)N(CC)CC)CC1C2 (single isomer, unassigned) [11-2 Isomer 1]
pEC50 M1 [2]: 6.41 | % Emax cf. ACh (M1) [2]: 37% | pEC50 M4 [4]: 4.70 | % Emax cf. ACh (M4) [4]: 3%

CCOC(=O)N1CCC2(CC(N3C[C@@H]4[C@H](C3)[C@H]4C(=O)N(C)CC)C2)C1 (single isomer, unassigned)
pEC50 M3 [1]: 4.70 | % Emax cf. ACh (M3) [1]: 20% | % Emax cf. ACh (M2) [3]: 9%

CCN(CC)C(=O)[C@H]1[C@@H]2CN(C3CC4(CCN(C(=O)OC)C4)C3)C[C@@H]21 (single isomer, unassigned)
pEC50 M1 [2]: 5.80 | % Emax cf. ACh (M1) [2]: 66% | pEC50 M4 [4]: 5.60 | % Emax cf. ACh (M4) [4]: 50%

CCOC(=O)N1CCC2(CC(N3C[C@@H]4[C@H](C3)[C@H]4C(=O)NCC3CCC3)C2)C1 (single isomer, unassigned) [2-3 Isomer 2]
pEC50 M1 [2]: 6.83 | % Emax cf. ACh (M1) [2]: 90% | pEC50 M4 [4]: 5.97 | % Emax cf. ACh (M4) [4]: 66%

COC(=O)N1CCC2(CC(N3C[C@@H]4[C@H](C3)[C@H]4C(=O)N3CCC34CCC4)C2)C1 (single isomer, unassigned)
pEC50 M1 [2]: 6.34 | % Emax cf. ACh (M1) [2]: 67% | pEC50 M4 [4]: 5.92 | % Emax cf. ACh (M4) [4]: 43%

CCOC(=O)N1CCC2(CC(N3C[C@@H]4[C@H](C3)[C@H]4c3csc(C)n3)C2)C1 (single isomer, unassigned) [2-30 Isomer 1]
pEC50 M1 [2]: 4.70 | % Emax cf. ACh (M1) [2]: 29% | pEC50 M4 [4]: 6.45 | % Emax cf. ACh (M4) [4]: 61%

CCN(CC)C(=O)[C@H]1[C@@H]2CN(C3CC4CCC3CN4C(=O)OC)C[C@@H]21 (single isomer, unassigned) [8-6 Isomer 1]
pEC50 M1 [2]: 6.07 | % Emax cf. ACh (M1) [2]: 31% | pEC50 M4 [4]: 4.70 | % Emax cf. ACh (M4) [4]: 2%

CCOC(=O)N1CCC2(CC(N3C[C@@H]4[C@H](C3)[C@H]4C(=O)N(C)C(C)C)C2)C1 (single isomer, unassigned) [2-8 Isomer 1]
pEC50 M1 [2]: 6.06 | % Emax cf. ACh (M1) [2]: 50% | pEC50 M4 [4]: 5.78 | % Emax cf. ACh (M4) [4]: 37%

CCOC(=O)N1CC2CCC1CC2N1C[C@@H]2[C@H](C1)[C@H]2C(=O)N(C)OC (single isomer, unassigned)
pEC50 M1 [2]: 6.43 | % Emax cf. ACh (M1) [2]: 99% | pEC50 M4 [4]: 4.70 | % Emax cf. ACh (M4) [4]: 7%

CCOC(=O)[C@H]1[C@@H]2CN(C3CC4CCC3CN4C(=O)OCC)C[C@@H]21 (some centres unmarked)
pEC50 M1 [2]: 5.78 | % Emax cf. ACh (M1) [2]: 53% | pEC50 M4 [4]: 6.26 | % Emax cf. ACh (M4) [4]: 61%

CCOC(=O)N1CC2CC(C1)C2N1C[C@@H]2[C@H](C1)[C@H]2C(=O)N(CC)CC (single isomer, unassigned)
pEC50 M1 [2]: 7.00 | % Emax cf. ACh (M1) [2]: 134% | % Emax cf. ACh (M2) [3]: 10% | pEC50 M4 [4]: 5.58 | % Emax cf. ACh (M4) [4]: 95%

CCOC(=O)N1CCC2(CC(N3C[C@@H]4[C@H](C3)[C@H]4C(=O)N(CC)OC)C2)C1 (single isomer, unassigned) [2-24 Isomer 1]
pEC50 M1 [2]: 6.03 | % Emax cf. ACh (M1) [2]: 76% | pEC50 M4 [4]: 5.79 | % Emax cf. ACh (M4) [4]: 53%
